Literature values in patent publication US10137070B2, “Composition including ionone or salt thereof as active ingredient and having effect of enhancing skin moisturizing, exfoliating skin, improving skin elasticity, inhibiting erythema, improving skin wrinkles, or alleviating skin photoaging” (Industry-Academic Cooperation Foundation, Yonsei University, priority 2016, dated 2018).

System: rats
Conditions: 72 rats, orally 3 mg/mouse dissolved in oil for 7 weeks every two days; cited from earlier work

Substance: ionone
- toxicity after oral administration: no toxicity was shown
